Results reported in ChEMBL document CHEMBL4229484, “7β-Methyl substituent is a structural locus associated with activity cliff for nepenthone analogues” (2018).

Amino acid sequences for entries named in this document (tags omitted).
UniProt P41145, whole entry: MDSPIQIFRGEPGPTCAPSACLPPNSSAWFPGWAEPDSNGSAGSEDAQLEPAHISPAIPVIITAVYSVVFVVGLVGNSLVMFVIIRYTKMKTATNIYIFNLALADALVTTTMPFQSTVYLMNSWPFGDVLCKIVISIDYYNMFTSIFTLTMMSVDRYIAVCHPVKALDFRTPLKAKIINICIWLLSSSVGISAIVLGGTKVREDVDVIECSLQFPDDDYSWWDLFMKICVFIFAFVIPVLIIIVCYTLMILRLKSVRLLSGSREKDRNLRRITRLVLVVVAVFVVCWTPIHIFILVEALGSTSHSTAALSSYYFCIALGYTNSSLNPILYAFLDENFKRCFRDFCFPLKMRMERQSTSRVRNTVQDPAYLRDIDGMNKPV
UniProt P33535, whole entry: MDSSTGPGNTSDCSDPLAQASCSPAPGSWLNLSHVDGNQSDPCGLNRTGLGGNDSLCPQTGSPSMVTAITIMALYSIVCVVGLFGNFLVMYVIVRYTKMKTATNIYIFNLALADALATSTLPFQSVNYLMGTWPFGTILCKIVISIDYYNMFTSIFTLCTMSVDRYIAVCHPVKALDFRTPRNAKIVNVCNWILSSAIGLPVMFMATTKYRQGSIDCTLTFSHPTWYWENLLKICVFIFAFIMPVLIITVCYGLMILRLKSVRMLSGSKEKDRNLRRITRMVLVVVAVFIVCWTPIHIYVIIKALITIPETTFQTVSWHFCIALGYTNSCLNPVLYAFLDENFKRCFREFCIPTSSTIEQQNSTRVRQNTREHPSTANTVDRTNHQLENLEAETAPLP
UniProt P33533, whole entry: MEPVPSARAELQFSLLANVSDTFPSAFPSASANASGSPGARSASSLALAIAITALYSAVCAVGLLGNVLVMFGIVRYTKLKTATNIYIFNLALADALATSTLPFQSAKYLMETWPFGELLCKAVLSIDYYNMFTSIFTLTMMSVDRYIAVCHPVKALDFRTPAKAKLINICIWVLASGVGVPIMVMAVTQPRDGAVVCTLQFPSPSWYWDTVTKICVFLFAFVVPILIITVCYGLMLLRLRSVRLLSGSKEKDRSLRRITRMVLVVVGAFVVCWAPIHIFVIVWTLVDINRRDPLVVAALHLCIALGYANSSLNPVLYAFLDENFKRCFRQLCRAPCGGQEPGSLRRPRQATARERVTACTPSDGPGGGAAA

Columns and labels:
[1] = species: Homo sapiens; test: Selectivity ratio of Ki for human MOR expressed in CHO cell membranes to Ki for human KOR expressed in CHO cell membranes
[2] = target: Kappa-type opioid receptor (Homo sapiens) (UniProt P41145); test: Agonist activity at human KOR expressed in CHO cell membranes after 1 hr by [35S]GTPgammaS binding based liquid scintillation counting analysis relative to control
[3] = target: Mu-type opioid receptor (Rattus norvegicus) (UniProt P33535); test: Agonist activity at rat MOR expressed in CHO cell membranes after 1 hr by [35S]GTPgammaS binding based liquid scintillation counting analysis relative to control
[4] = target: Delta-type opioid receptor (Rattus norvegicus) (UniProt P33533); test: Agonist activity at rat DOR expressed in CHO cell membranes after 1 hr by [35S]GTPgammaS binding based liquid scintillation counting analysis relative to control
[5] = target: Kappa-type opioid receptor (Homo sapiens) (UniProt P41145); test: Agonist activity at human KOR expressed in CHO cell membranes at 1 uM after 1 hr by [35S]GTPgammaS binding based liquid scintillation counting analysis relative to control
[6] = target: Kappa-type opioid receptor (Homo sapiens) (UniProt P41145); test: Agonist activity at human KOR expressed in CHO cell membranes at 10 uM after 1 hr by [35S]GTPgammaS binding based liquid scintillation counting analysis relative to control
[7] = species: Homo sapiens; test: Selectivity ratio of Ki for human DOR expressed in CHO cell membranes to Ki for human KOR expressed in CHO cell membranes

| SMILES | Ratio Ki [1] | Emax [4] [%] | further results |
| --- | --- | --- | --- |
| COc1ccc2c3c1O[C@H]1[C@@]4(OC)CC[C@@]5(C[C@]4(C)C(O)c4ccc(-c6ccccc6)cc4)[C@@H](C2)N(CC2CC2)CC[C@]315 (stereo partly specified) | 0.06 |  |  |
| COc1ccc2c3c1O[C@H]1[C@@]4(OC)CC[C@@]5(C[C@]4(C)OC(C)=O)[C@@H](C2)N(CC2CC2)CC[C@]315 | 0.8 |  |  |
| COc1ccc(C(=O)[C@@]2(C)C[C@@]34CC[C@]2(OC)[C@@H]2Oc5c(OC)ccc6c5[C@@]23CCN(CC2CC2)[C@@H]4C6)cc1 | 0.8 | 241 | Emax [2]: 178%; Emax [3]: 237% |
| COc1ccc2c3c1O[C@H]1[C@@]4(OC)C=C[C@@]5(C[C@@H]4C(=O)c4ccccc4)[C@@H](C2)N(CC2CC2)CC[C@]315 | 339 | 225 | Emax [2]: 212%; Emax [3]: 202% |
| COc1cccc(C(O)[C@@]2(C)C[C@@]34CC[C@]2(OC)[C@@H]2Oc5c(OC)ccc6c5[C@@]23CCN(CC2CC2)[C@@H]4C6)c1 (stereo partly specified) | 3 |  |  |
| COc1ccc2c3c1O[C@H]1[C@@]4(OC)CC[C@@]5(C[C@]4(C)C(O)c4ccc(C(F)(F)F)cc4)[C@@H](C2)N(CC2CC2)CC[C@]315 (stereo partly specified) | 1.4 |  |  |
| COc1ccc2c3c1O[C@H]1[C@@]4(OC)CC[C@@]5(C[C@]4(C)OC(=O)c4ccccc4)[C@@H](C2)N(CC2CC2)CC[C@]315 | 0.06 |  |  |
| COc1ccc(C(O)[C@@]2(C)C[C@@]34CC[C@]2(OC)[C@@H]2Oc5c(OC)ccc6c5[C@@]23CCN(CC2CC2)[C@@H]4C6)cc1 (stereo partly specified) | 0.6 |  |  |
| COc1ccc2c3c1O[C@H]1[C@@]4(OC)CC[C@@]5(C[C@]4(C)C=O)[C@@H](C2)N(CC2CC2)CC[C@]315 | 11 | 216 | Emax [5]: 145%; Emax [6]: 155% |
| COc1ccc2c3c1O[C@H]1[C@@]4(OC)CC[C@@]5(C[C@]4(C)OC(=O)C(C)C)[C@@H](C2)N(CC2CC2)CC[C@]315 | 1.2 |  |  |
| COc1ccc2c3c1O[C@H]1[C@@]4(OC)CC[C@@]5(C[C@]4(C)C(=O)c4ccc(-c6ccccc6)cc4)[C@@H](C2)N(CC2CC2)CC[C@]315 |  | 198 | Emax [2]: 181% |
| COc1ccc2c3c1O[C@H]1[C@@]4(OC)CC[C@@]5(C[C@]4(C)C(=O)c4ccccc4)[C@@H](C2)N(CC2CC2)CC[C@]315 | 9 | 182 | Emax [2]: 213%; Emax [3]: 198% |
| COc1ccc2c3c1O[C@H]1[C@@]4(OC)CC[C@@]5(C[C@]4(C)C(O)c4ccccc4)[C@@H](C2)N(CC2CC2)CC[C@]315 (stereo partly specified) | 21 |  |  |
| COc1cccc(C(=O)[C@@]2(C)C[C@@]34CC[C@]2(OC)[C@@H]2Oc5c(OC)ccc6c5[C@@]23CCN(CC2CC2)[C@@H]4C6)c1 | 0.4 |  | Ratio Ki [7]: 132 |
| COc1ccc2c3c1O[C@H]1[C@@]4(OC)CC[C@@]5(C[C@]4(C)OC(=O)c4ccc(C(F)(F)F)cc4)[C@@H](C2)N(CC2CC2)CC[C@]315 | 0.04 |  |  |
| COc1ccc2c3c1O[C@H]1[C@@]4(OC)CC[C@@]5(C[C@]4(C)CO)[C@@H](C2)N(CC2CC2)CC[C@]315 | 11 | 232 | Emax [5]: 118%; Emax [3]: 218%; Emax [6]: 139% |
| COc1ccc2c3c1O[C@H]1[C@@]4(OC)CC[C@@]5(C[C@]4(C)C(=O)c4ccc(C(F)(F)F)cc4)[C@@H](C2)N(CC2CC2)CC[C@]315 |  | 239 | Emax [2]: 175% |
